From US10111885B2, “Compositions and therapeutic methods for the treatment of complement-associated diseases” (Resverlogix Corp., priority 2015, dated 2018)

Legend:
[1] = tested on: complement component 3 (C3) mRNA; assay: mRNA expression in humanized livers of chimeric mice; type: in vivo, chimeric mice with humanized livers; conditions: 150 mg/kg b.i.d. oral gavage, 3 days, liver
Procedure: (§1) In this example, chimeric mice with humanized livers were generated by transplanting human hepatocytes into urokinase-type plasminogen activator^+/+/severe combined immunodeficient transgenic mice. Replacement with human hepatocytes can reach 80-90%. This mouse model can be used to determine the effect of compounds, including those compounds in the present invention, on regulating mRNA levels in human hepatocytes in vivo. Mice were treated with 150 mg/kg b.i.d. with RVX000222 or vehicle by oral gavage for 3 days. Livers were harvested and RNA levels determined by real-time PCR using human specific TaqMan primer probes and cyclophilin A as an endogenous control. Table 5 lists the reduction in the levels of the indicated mRNAs. *p<0.05, **p<0.01 versus vehicle treated animals using 2-tailed student's t-tests.

[2] = tested on: mannose-binding lectin 2 (MBL2) mRNA; assay: as above; type: in vivo, chimeric mice with humanized livers; conditions: 150 mg/kg b.i.d. oral gavage, 3 days, liver; p < 0.01
Procedure: as §1

[3] = tested on: C9 mRNA; assay: as above; type: in vivo, chimeric mice with humanized livers; conditions: 150 mg/kg b.i.d. oral gavage, 3 days, liver; p < 0.01
Procedure: as §1

[4] = tested on: complement component 4 (C4) mRNA; assay: as above; type: in vivo, chimeric mice with humanized livers; conditions: 150 mg/kg b.i.d. oral gavage, 3 days, liver; p < 0.05
Procedure: as §1

[5] = tested on: complement component 5 (C5) mRNA; assay: as above; type: in vivo, chimeric mice with humanized livers; conditions: 150 mg/kg b.i.d. oral gavage, 3 days, liver
Procedure: as §1

[6] = tested on: complement C2 mRNA; assay: Complement mRNA expression in primary human hepatocytes; type: cell-based; conditions: 30 uM, maximum at 72 h, single donor
Procedure: (§2) Huh-7 and HepG2 cells are liver-derived cell lines and are models for what can occur in the liver. Huh-7 cells (JCRB Cell Bank) were introduced to 96-well plates (^˜2.5×10^5 per well) in 100 μL DMEM containing 10% (v/v) FBS, 100 U/mL penicillin, 100 ug/mL streptomycin and 5 ug/mL plasmocin (all reagents from Gibco, except for the former, which was obtained from Invivogen). After 24 h, Huh-7 cells were treated with compounds in the same media formulation used for plating, and supplemented with 0.1% DMSO for the amount of time indicated in tables 2, 3, and 4. For select experiments, 24 h post-plating, cells were treated with cytokines and the compound of interest simultaneously, for a total treatment time of 48 h. Alternatively, 24 h after plating, cells were pre-treated with cytokines for 24 h before adding the compound of interest for 48 h. HepG2 cells (ATCC) were cultured in 96-well plates (^˜2.5×10^5 per well) in MEM containing 10% FBS, 1× non-essential amino acids, 1 mM sodium pyruvate, 2 mM L-glutamine, 100 U/mL penicillin, 100 ug/mL streptomycin and 5 ug/mL plasmocin. Serum amount was reduced to 0.5% for treatments with compound or cytokines. Timing of treatment of HepG2 cells with compounds and cytokines was as described for Huh-7 cells. Primary human hepatocytes (CellzDirect/Life Technologies) were plated in collagen coated 96-well plates at 70 000 cells/well, then overlaid with Matrigel™ as recommended by the supplier. Cells were treated with compounds of interest and/or cytokines for the indicated time points in the recommended media supplemented with 0.1% DMSO and 10% FBS (v/v). Cells were harvested by mRNA Catcher PLUS Kit (Life Technologies) followed by real-time PCR using the RNA UltraSense One-Step qRT-PCR System. The level of the mRNA of interest was measured by TaqMan real-time PCR relative to the endogenous control cyclophilin A in the same sample. Data were acquired using the ViiA-7 Real Time PCR System (Applied Biosystems).
(§3) Downregulation of expression of components of the complement cascade will result in reduced activity of the pathway and thus will constitute a positive result. Tables 2 and 3 list the concentration of compounds at which the level of the indicated mRNA is reduced by 50%, as well as the duration of treatment with compound. Table 4 lists the maximum reduction in the indicated mRNA measured in primary human hepatocytes treated with compounds for up to 72 hours. FIGS. 1, 2, 3 and 4 show effects of compounds on cytokine-induced (i.e. inflammatory) expression of complement genes in Huh-7 cells and HepG2 cells.

[7] = tested on: complement C1S mRNA; assay: as above; type: cell-based; conditions: 30 uM, maximum at 72 h, single donor
Procedure: as §2, §3

[8] = tested on: complement C9 mRNA; assay: as above; type: cell-based; conditions: 30 uM, maximum at 72 h, single donor
Procedure: as §2, §3

[9] = tested on: complement C4 mRNA; assay: as above; type: cell-based; conditions: 30 uM, maximum at 72 h, single donor
Procedure: as §2, §3

[10] = tested on: complement C3 mRNA; assay: as above; type: cell-based; conditions: 30 uM, maximum at 24 h, single donor
Procedure: as §2, §3

[11] = tested on: MBL2 mRNA; assay: as above; type: cell-based; conditions: 30 uM, maximum at 24 h, single donor
Procedure: as §2, §3

[12] = tested on: complement C5 mRNA; assay: as above; type: cell-based; conditions: 30 uM, maximum at 24 h, single donor
Procedure: as §2, §3

[13] = tested on: C3 protein; assay: Secreted complement protein ELISA, primary human hepatocytes; type: cell-based; conditions: 30 uM, primary human hepatocytes treated simultaneously with IL-6
Procedure: (§4) In this example, protein secretion from cells grown in culture in the presence of compound of interest was analyzed by enzyme linked immunosorbent assay (ELISA). In some cases, cultured cells were treated with cytokines and the compound of interest to mimic an inflammatory state. The method can be used to determine the effect of compounds, including those in the present invention, on the secretion of specific proteins from cells grown in culture under basal and cytokine stimulated (i.e. inflammatory) conditions (Table 7, FIGS. 5 and 6).
(§5) Huh-7 cells (JCRB Cell Bank) were introduced to 24-well plates in 500 μL DMEM supplemented with 10% (v/v) FBS, 100 U/mL penicillin, 100 ug/mL streptomycin and 5 ug/mL plasmocin (all reagents from Gibco, except for the former, which comes from Invivogen) at 200 000 cells/well. After 24 h, cells were treated with the compound of interest and/or cytokines in DMEM with 10% FBS containing 0.1% DMSO for a total treatment time of 72 h. Fresh media containing compounds and/or cytokines was introduced in the final 24 h of the experiment. At harvest, media were collected, debris was removed by brief centrifugation, and ELISA assays for the indicated proteins were performed as per the manufacturer's protocol. To correct for differences in cell numbers, values obtained for complement proteins were normalized to values for transferrin. HepG2 cells (ATCC) were cultured in MEM containing 10% FBS, 1× non-essential amino acids, 1 mM sodium pyruvate, 2 mM L-glutamine, 100 U/mL penicillin, 100 ug/mL streptomycin and 5 ug/mL plasmocin. Serum amount was reduced to 0.5% when compounds were present. Treatment combinations and timing were as described above for Huh-7 cells. Primary human hepatocytes (CellzDirect/Life Technologies) were plated in collagen coated 96-well plates at 70 000 cells/well, then overlaid with Matrigel™ as recommended by the supplier. Cells were treated with compounds of interest with or without the indicated cytokines for a total of 72 h in the recommended media supplemented with 10% FBS and 0.1% DMSO (v/v). Media were collected for measurements of secreted proteins.
(§6) The ELISA kits for detection of complement C3, C4, C5 and C9 were obtained from AssayPro (St. Charles, Mo.), while the ELISA reagents for transferrin detection were from Bethyl Laboratories (Montgomery, Tex.). Data were collected on a Thermo Scientific Multiskan GO apparatus. Downregulation of expression of components of the complement cascade will result in reduced activity of the pathway and thus will constitute a positive result. Table 7: FIGS. 5 and 6 list the amount of C3, C4, C5 and C9 protein that are detected in the media of cells treated with RVX000222 (compared to DMSO).

[14] = tested on: C5 protein; assay: as above; type: cell-based; conditions: 30 uM, primary human hepatocytes treated simultaneously with IL-6
Procedure: as §4, §5, §6

[15] = tested on: C9 protein; assay: as above; type: cell-based; conditions: 30 uM, primary human hepatocytes treated simultaneously with IL-6
Procedure: as §4, §5, §6

[16] = tested on: C4 protein; assay: as above; type: cell-based; conditions: 30 uM, primary human hepatocytes treated simultaneously with IL-6
Procedure: as §4, §5, §6

`COc1cc(OC)c2c(=O)[nH]c(-c3cc(C)c(OCCO)c(C)c3)nc2c1` [RVX000222, 2-(4-(2-hydroxyethoxy)-3,5-dimethylphenyl)-5,7-dimethoxyquinazolin-4(3H)-one] was tested, and the “C3 average % reduction in expression relative to vehicle treated mice” value [1] was 20%, the “MBL2 average % reduction in expression relative to vehicle treated mice” value [2] was 61%** and the “C9 average % reduction in expression relative to vehicle treated mice” value [3] was 45%**. For the same compound, the “C4 average % reduction in expression relative to vehicle treated mice” value [4] was 36%*, the “C5 average % reduction in expression relative to vehicle treated mice” value [5] was 17% and the “C2 percent maximal reduction in gene expression” value [6] was 35% (72 h). The “C1S percent maximal reduction in gene expression” value [7] was 27% (72 h), the “C9 percent maximal reduction in gene expression” value [8] was 86% (72 h) and the “C4 percent maximal reduction in gene expression” value [9] was 44% (72 h). The “C3 percent maximal reduction in gene expression” value [10] was 13% (24 h), the “MBL2 percent maximal reduction in gene expression” value [11] was 92% (24 h) and the “C5 percent maximal reduction in gene expression” value [12] was 38% (24 h). For the same compound, the “secretion of C3 protein (FIG. 6)” value [13] was “reduces secretion”, the “secretion of C5 protein (FIG. 6)” value [14] was “reduces secretion” and the “secretion of C9 protein (FIG. 6)” value [15] was “reduces secretion”. The “secretion of C4 protein (FIG. 6)” value [16] was “reduces secretion”.

Marks after values point to notes of the source that are not given here.
